Values joined by “and” are separate entries in the source; they are usually repeats but may differ in a detail not shown here. Equal values may be shown once. The entries are a selection whose mix differs from that of the whole data set. Active and inactive are the calls of the source. Rule as the data show it: active = growth inhibition above about 70%; inactive = the rest.
Assays:
[1] = NCI Yeast Anticancer Drug Screen. Data for the rad50 strain (AID 155);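 also: 0% = growth of vehicle-only cultures of the same strain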; settings: S. cerevisiae rad50 strain growth inhibition; at 50.0 µM; hits give high values
[2] = NCI Yeast Anticancer Drug Screen. Data for the mec2-1 strain (AID 157); settings: S. cerevisiae mec2-1 strain, at 50.0 µM, hits give high values
[3] = NCI Yeast Anticancer Drug Screen. Data for the sgs1 mgt1 strain (AID 161);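 also: 0% = growth of cultures given vehicle only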; settings: S. cerevisiae sgs1 mgt1 strain, at 50.0 µM, hits give high values
[4] = NCI Yeast Anticancer Drug Screen. Data for the cln2 rad14 strain (AID 165);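 also: 0% = growth equal to vehicle treated cultures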; settings: S. cerevisiae cln2 rad14 strain, at 50.0 µM, hits give high values
[5] = NCI Yeast Anticancer Drug Screen. Data for the bub3 strain (AID 167); settings: S. cerevisiae bub3 mutant strain, at 50.0 µM, hits give high values
[6] = NCI Yeast Anticancer Drug Screen. Data for the mlh1 rad18 strain (AID 175); settings: S. cerevisiae mlh1 rad18 strain growth inhibition; at 50.0 µM; hits give high values

Measured: growth inhibition

COC(=O)CC[N+]1(C)CC1
inactive: [1] 28.6% | [2] 9% | [3] 24.4% | [4] -31.4% | [5] -8% | [6] 25.8%

Cc1cccc(OP(=O)(Cl)Oc2cccc(C)c2)c1
inactive: [1] -26.9% | [2] -3.65% | [3] 2.15% | [4] -30.1% | [5] 4.2% | [6] -12.6%

CC1(C)OCC(COP(=O)(Oc2ccccc2)N(CCCl)CCCl)O1 (centres undefined)
inactive: [1] 14.2% | [2] -12.1% | [3] 3.9% | [4] -4.85% | [5] 9.85% | [6] -0.4%

ClP1(Cl)=N[P@](Cl)(N2CCOCC2)=NP(Cl)(Cl)=N[P@@](Cl)(N2CCOCC2)=N1
inactive: [1] -2.8% | [2] 16.3% | [3] 5.4% | [4] 23.6% | [5] -7.65% | [6] 2.55%

CC(=O)N(CCCc1c(C)nc(N)[nH]c1=O)Cc1ccccn1
inactive: [1] -4% | [2] -15.9% | [3] 2.6% | [4] -33% | [5] -5.5% | [6] -5.4%

CC(C)([N+](=O)[O-])C(C)(C)[N+](=O)[O-]
inactive: [1] -12.7% | [2] 5.5% | [3] 0.35% | [4] -6.15% | [5] -2.9% | [6] 1.5%

CCCCOP(N)(=O)OCCCC
inactive: [1] 8.55% | [2] -17.6% | [3] -7.6% | [4] 19.3% | [5] -18.7% | [6] 24.1%

O=[N+]([O-])c1ccc(Nc2ccc(Oc3ccc([N+](=O)[O-])cc3[N+](=O)[O-])cc2)c([N+](=O)[O-])c1
inactive: [1] -10.7% | [2] -11.1% | [3] -16.6% | [4] 6.6% | [5] -8.15% | [6] -20.4%

NC(=O)N/C(N)=N/P(=O)(Oc1ccccc1)Oc1ccccc1
inactive: [1] 9.8% | [2] 8.15% | [3] 8.7% | [4] 12.9% | [5] -5.9% | [6] 4.05%

CCCCCCCNP(=S)(Cl)Cl
inactive: [1] 6.35% | [2] -7.05% | [3] 5.95% | [4] -3.7% | [5] -1.35% | [6] 39.4%

N=C(N)SCCCl
inactive: [1] 5.15% | [2] 3.8% | [3] 16.1% | [4] -13.3% | [5] -1.85% | [6] 32.8%

N#CCN/C(N)=N/[N+](=O)[O-]
inactive: [1] 2.9% | [2] -1.1% | [3] -2.1% | [4] -32.4% | [5] 9.55% | [6] -0.3%

CCc1ccc(S(=O)(=O)N(CCCl)CCCl)cc1
inactive: [1] -15.4% | [2] -9.75% | [3] 0.75% | [4] -38.5% | [5] 49.3% | [6] 1.5%

ClCCNCc1ccc2c(c1)OCO2
inactive: [1] -32.9% | [2] -19.5% | [3] -23.1% | [4] -6.2% | [5] -20.6% | [6] -37.2%

CC(C)NCCN(C(=N)C(=N)N(CCNC(C)C)C(C)C)C(C)C
inactive: [1] 15.8% | [2] -1.6% | [3] 15.9% | [4] -4.8% | [5] 3.15% | [6] 42.2%

O=C(CCC(=O)OCCNc1ccc([N+](=O)[O-])cc1[N+](=O)[O-])OCCNc1ccc([N+](=O)[O-])cc1[N+](=O)[O-]
inactive: [1] -4.7% | [2] -7.45% | [3] -19.4% | [4] 11.2% | [5] -4.6% | [6] -12.9%

O=P(O)(O)F
inactive: [1] -7.8% | [2] -21.4% | [3] -13.9% | [4] -25.4% | [5] -0.3% | [6] -23.9%

Cc1ccc(S(=O)(=O)CN(CCCl)CCCl)cc1
inactive: [1] 26.9% | [2] 10.8% | [3] 32.8% | [4] 22.5% | [5] 19.9% | [6] 29.6%

Cn1c(COC(=O)N(CCCl)CCCl)cnc1[N+](=O)[O-]
inactive: [1] -17.7% | [2] 6.85% | [3] -31.6% | [4] 28.1% | [5] 12.6% | [6] 10.3%

ICCN(CCI)c1ccc2ccccc2c1
inactive: [1] 30.6% | [2] 11% | [3] 18.1% | [4] 18.1% | [5] 21.4% | [6] 37.1%

CCCC/C=N\NC1=NC(C)(CCC2(C)N=C(N/N=C\CCCC)SP2(=O)Nc2ncccn2)P(=O)(Nc2ncccn2)S1 (centres undefined)
inactive: [1] -25.4% | [2] 22.4% | [3] 50.9% | [4] 38.5% | [5] 24.2% | [6] -30.1%

CCOC(=O)NC(C)(CC(C)(NC(=O)OCC)P(=O)(O)Nc1ncn[nH]1)P(=O)(O)Nc1ncn[nH]1 (centres undefined)
inactive: [1] 13.8% | [2] 3.35% | [3] 12.3% | [4] 3.7% | [5] 15.8% | [6] 14.3%

CC=C(c1ccc(N(CC)CC)cc1)c1ccc(N(CC)CC)cc1
inactive: [1] 1.4% | [2] 2.95% | [3] 8.45% | [4] -31.1% | [5] 24.7% | [6] 11.1%

O=[N+]([O-])c1cc(Cl)c(O)c([N+](=O)[O-])c1
inactive: [1] 12.8% and 34.6% | [2] 12.2% and 14.2% | [3] 6.8% and 27.4% | [4] 6.15% and 22.2% | [5] -5.6% and 11.3% | [6] 36.8% and 32.6%

ClP1(Cl)=NP(Cl)(Cl)=NP(Cl)(Cl)=N1
inactive: [1] 12.6% | [2] 10.2% | [3] -15.8% | [4] -24.2% | [5] -2.3% | [6] 35.6%

CCCCC(CC)COP(O)OCC(CC)CCCC (centres undefined)
inactive: [1] 10.8% | [2] -7.8% | [3] 1.4% | [4] -53.8% | [5] -2.9% | [6] 23.3%

O=CCCOP(=O)(N(CCCl)CCCl)N1CC1 (centres undefined)
inactive: [1] -12.5% | [2] -22.9% | [3] -51.9% | [4] -10.7% | [5] -27.1% | [6] -22.6%

Cc1ccc(NC(=S)NP(=O)(Oc2ccccc2)Oc2ccccc2)c(Br)c1
inactive: [1] 28.9% | [2] 11.1% | [3] 55.4% | [4] -7.05% | [5] 0.3% | [6] 50.3%

CCN(CCCl)c1ccc(CCN)cc1
inactive: [1] -3.45% | [2] -10.3% | [3] 0.95% | [4] 14% | [5] 2.4% | [6] 2.25%

NC(CCc1ccc(N(CCCl)CCCl)cc1)C(=O)O (centres undefined)
inactive: [1] 5.8% | [2] -5.35% | [3] 0.1% | [4] 4.85% | [5] -23.6% | [6] -0.2%

CCOC(=O)NC(C)(CCC(C)(NC(=O)OCC)P(=O)(O)Nc1ncccn1)P(=O)(O)Nc1ncccn1 (centres undefined)
inactive: [1] 0.6% | [2] 6.65% | [3] 3.35% | [4] -6.45% | [5] 8.5% | [6] 0.45%

CS(=O)(=O)OC1CSCC1OS(C)(=O)=O (centres undefined)
inactive: [1] -3.35% | [2] 19.4% | [3] 18.1% | [4] -22.6% | [5] 1.65% | [6] 9.45%

CCOc1ccc(C(=O)N(CCCl)CCCl)cc1
inactive: [1] 20.8% | [2] -8.35% | [3] 13.8% | [4] -13.3% | [5] -5.1% | [6] 2.1%

c1ccc2c(c1)N=C1CCCC3CCCCC123 (centres undefined)
inactive: [1] 42.5% | [2] 33.5% | [3] 64.8% | [4] 36.8% | [5] 43.5% | [6] 45.2%

C[N+](CCCl)(CCCl)Cc1ccccc1[N+](=O)[O-]
inactive: [1] -42.5% | [2] -23.9% | [3] -30.2% | [4] 19.9% | [5] -6% | [6] -29.1%

[N-]=[N+]=Nc1cc(N)c([N+](=O)[O-])cc1[N+](=O)[O-]
inactive: [1] 45.3% | [2] 15.1% | [3] 21.4% | [4] 9.4% | [5] -7.35% | [6] 27.1%

O=[As](O)(O)c1ccc(Cl)cc1
inactive: [1] 22.6% | [2] -9.95% | [3] 0.7% | [4] 2.7% | [5] -53.2% | [6] -19.8%

O=[N+]([O-])c1ccc(N=Nc2c(O)[nH]c3ccc([N+](=O)[O-])cc23)c([N+](=O)[O-])c1
inactive: [1] -13.9% | [2] -15.2% | [3] -8.8% | [4] 4.9% | [5] -33.5% | [6] -40.6%

C=NNc1ccc([N+](=O)[O-])cc1[N+](=O)[O-]
inactive: [1] 18.4% | [2] 17.2% | [3] 17.6% | [4] 15.2% | [5] -2.65% | [6] 16.6%
